Structures are written as SMILES.

A word on the IC50: it is the point on the concentration scale where inhibition reaches its midpoint.

The subject of this assay is S. cerevisiae tim23-1 mutant growth, luminescence. The assay can be described thus: tim23-1 mutant yeast growth inhibitors, dose response, luminescence, uHTS hits (AID 493002).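 Also: yeast grown roughly 22 hours at 25 °C before the luminescence read.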

Take `COc1ccc(-c2ccc(NC(=O)c3ccco3)cc2)nn1`: the IC50 was 14.3 µM.

For the molecule `COc1cccc2c1C(=O)c1c(O)c3c(c(O)c1C2=O)C[C@@](O)(C(=O)CO)C[C@@H]3O[C@H]1C[C@H](N)[C@H](O)[C@H](C)O1`, the IC50 is 12.7 µM.

For the origin of these results see PubChem BioAssay AID493002 (Sanford-Burnham Center for Chemical Genomics, 2010).
